Test system: female, 129J strain mice
Assay: Hind paw withdrawal latency (HPWL) to radiant heat

## C[N+](C)(C)CC[N+]1(C)Cc2c(Cl)c(Cl)c(Cl)c(Cl)c2C1 [chlorisondamine]
Chlorisondamine 10 mg/kg
  nociceptive effect: caused hyperalgesia

## FC(F)OC(Cl)C(F)(F)F (stereo not drawn) [isoflurane]
0.28% isoflurane vs oxygen control, p<0.01
  nociceptive response (HPWL): significantly hyperalgesic
0.56% isoflurane
  nociceptive response (HPWL): HPWL returned to baseline
All mice
  time for HPWL to return to baseline after isoflurane washout: ≤ 1 h
animals
  concentrations that cause hyperalgesia in animals: 0.1-0.38%
Associated with sedation
  isoflurane concentrations at which increased HPWL occurred: above 0.86%
Isoflurane 0.28%, female mice, baseline 9.3±0.7sec.
  HPWL: 6.6 ± 0.6 s
Isoflurane 0.28%, female mice, baseline 9.3±0.7sec., n=14
  maximal reduction of HPWL: 29%
Isoflurane concentrations higher than 0.56%
  nociceptive response (HPWL): progressively increasing analgesia
Saline injected animals, multiple injection paradigm
  isoflurane concentration of maximal hyperalgesia: 0.56%

## CNC1(C)C2CCC(C2)C1(C)C (stereo not drawn) [mecamylamine]
5 mice
  response to 0.84% isoflurane at 1 or 3 hours after mecamylamine: no significant difference
mecamylamine
  effect on HPWL at higher isoflurane concentrations that caused analgesia: HPWL was not changed
Mecamylamine 2 mg/kg, p<0.01
  effect on hyperalgesia induced by 0.28% isoflurane: enhanced
Mecamylamine 5 mg/kg
  nociceptive effect at baseline: caused hyperalgesia at baseline
Mecamylamine 5 mg/kg and greater IP
  nociceptive response (HPWL): analgesia
Mecamylamine 5 mg/kg with addition of isoflurane 0.28%
  decrease in HPWL: 50%
Mecamylamine 2 and 4 mg/kg IP, p<0.001
  nociceptive response (HPWL): significantly increased nociception
Mecamylamine 7.5 or 10 mg/kg
  behaviour after injection: assumed a hunched posture, made rapid back and forth rocking motions, and aggressively groomed themselves
